Tests used:
[1] = molecular target: T1, CB1 receptors (Mus musculus, UniProt P47746); experiment: radioreceptor binding, displacement of [3H]-CP-55,940, CB1 (brain); settings: read-out: CB1 (brain) Ki; mouse brain membranes, 1 nM [3H]-CP55.940, 1 hour at 30° C.
T1 construct: the complete brain (excluding the cerebellum) and the spleen were quickly dissected and kept in ice; from tissue; host or cells: mouse brain (excluding the cerebellum), membrane preparation
Procedure: (§1) The affinity of the compounds towards the CB1 and CB2 cannabinoidergic receptors was evaluated in vitro by radioreceptor binding studies using the following method.
(§2) The technique of the receptor binding allows to establish if, and with which affinity and specificity, a specific compound binds to a particular receptor. To evaluate the affinity of a specific compound to a particular receptor it is necessary to challenge in a particular tissue preparation wherein those specific receptors are present the compound to be tested with a radioactive labelled compound whose affinity for the same receptors is known. […] The amount of radioactivity present in the receptor-compound complex allows furthermore to stimate with great accuracy the amount of compound bound to the receptor. By said method it is therefore possible to stablish quickly the affinity of a new compound towards a specific receptor and thus to determine its pharmacological activity. […]
(§3) The thus obtained membranes (50-80 μg of proteins) were incubated in the presence of 1 nM of [^3H]-CP55.940 for 1 hour at 30° C. in a final volume of 0.5 ml of TME buffer containing […] (BSA). The non specific binding was measured in the presence of CP55.940 at a 1 μM concentration. […]
(§4) The radioactivity present in the filters was determined by a scintillator spectrophotometer (Tricarb® 2100, Packard, Meridien, USA). […]

Chains of the proteins cited; added tags and fusions are not shown. Lines headed by an entry give the natural chain unless they say otherwise; changes in a name come on top.
UniProt P47746, whole entry: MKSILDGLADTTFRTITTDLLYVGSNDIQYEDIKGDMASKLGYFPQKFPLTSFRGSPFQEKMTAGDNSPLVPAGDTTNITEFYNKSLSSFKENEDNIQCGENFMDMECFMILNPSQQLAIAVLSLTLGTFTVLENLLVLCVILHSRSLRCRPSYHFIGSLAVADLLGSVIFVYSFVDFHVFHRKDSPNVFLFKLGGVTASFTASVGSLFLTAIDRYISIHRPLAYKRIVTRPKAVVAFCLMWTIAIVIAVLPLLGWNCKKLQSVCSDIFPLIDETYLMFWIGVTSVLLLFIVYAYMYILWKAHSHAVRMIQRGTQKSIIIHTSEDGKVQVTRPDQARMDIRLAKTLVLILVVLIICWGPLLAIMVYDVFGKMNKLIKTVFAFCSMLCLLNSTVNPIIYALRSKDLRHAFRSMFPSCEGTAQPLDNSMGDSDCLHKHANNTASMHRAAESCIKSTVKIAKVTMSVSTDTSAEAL
UniProt P47936: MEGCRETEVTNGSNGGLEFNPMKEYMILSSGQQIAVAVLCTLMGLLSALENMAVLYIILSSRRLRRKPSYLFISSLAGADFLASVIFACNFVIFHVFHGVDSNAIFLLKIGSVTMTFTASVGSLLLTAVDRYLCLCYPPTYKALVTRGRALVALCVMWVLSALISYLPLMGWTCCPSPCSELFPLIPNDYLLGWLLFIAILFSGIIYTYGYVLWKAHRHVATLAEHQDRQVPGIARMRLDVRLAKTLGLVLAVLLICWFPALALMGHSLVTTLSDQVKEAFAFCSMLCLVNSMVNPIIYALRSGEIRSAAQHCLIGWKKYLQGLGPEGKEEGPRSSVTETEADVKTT

[2] = molecular target: T2, CB2 receptors (Mus musculus, UniProt P47936); experiment: radioreceptor binding, displacement of [3H]-CP-55,940, CB2 (spleen); settings: read-out: CB2 (spleen) Ki; mouse spleen membranes, 1 nM [3H]-CP55.940, 1 hour at 30° C.
T2 construct: the complete brain (excluding the cerebellum) and the spleen were quickly dissected and kept in ice; from tissue; host or cells: mouse spleen, membrane preparation
Procedure: as §1, §2, §3, §4

SR144528 [reference compound]
Ki [1]: 70 ± 10 nM
Ki [2]: 0.28 ± 0.04 nM
